Measurements reported in patent US8318741B2, “Therapeutic compositions and methods” (The Texas A & M University System, priority 2005, dated 2012).

Experiments:
[1] = test system: ocular hypertensive rabbit eyes; experiment: Choroidal blood flow in ocular hypertensive rabbit eyes (colored microspheres); format: in vivo, New Zealand white rabbits
[2] = test system: rat eyes; experiment: Retinal function recovery after ischemic insult in rat eyes (ERG b-wave); conditions: N-Nitropyrazoles and C-Nitropyrazoles, 10 mg/kg ip
[3] = test system: choroidal neovascularization in rat eyes; experiment: CNV formation in rat eyes after laser induction (fluorescein angiography)

Q: With `O=[N+]([O-])n1cc(Br)cn1` as the compound, how does the “Choroidal Blood Flow, 30 min” value ([1]; N-nitro-azoles and C-nitropyrazoles, 50 μl, 1% topically, 30 min, vehicle controls at 100%, mean ± SD, N = 6) read?
A: 105.8 ± 30.1 %

Q: And the “Choroidal Blood Flow, 60 min” value ([1]; N-nitro-azoles and C-nitropyrazoles, 50 μl, 1% topically, 60 min, vehicle controls at 100%, mean ± SD, N = 6)?
A: 83.8 ± 11.3 %

Q: And the “Choroidal Blood Flow, 120 min” value ([1]; N-nitro-azoles and C-nitropyrazoles, 50 μl, 1% topically, 120 min, vehicle controls at 100%, mean ± SD, N = 6)?
A: 153.3 ± 51.5 %

Q: What about the “Choroidal Blood Flow, 180 min” value ([1]; N-nitro-azoles and C-nitropyrazoles, 50 μl, 1% topically, 180 min, vehicle controls at 100%, mean ± SD, N = 6) of the same compound?
A: 112.5 ± 34.6 %

Q: What about the “Onset / latent period of the increase of choroidal blood flow” value ([1]; after drug administration) of the same compound?
A: 30 min

Q: And the “Retinal Function Recovery After Ischemic Insult, Treated” value ([2]; b-wave recovery after 30 min ischemia, Mean ± SD, N = 6)?
A: 58.6 ± 21.4 %

Q: And the “Retinal Function Recovery, Net increase (%)” value ([2]; treated versus control)?
A: 67.4%

Q: What about the “Inhibition of CNV formation” value ([3]; 20 mg/kg i.p. once a day for 4 weeks, eight laser lesions) of the same compound?
A: marked inhibition of the CNV formation

Q: What about the “Inhibition of CNV formation” value ([3]; at various dose levels, AMD rat model) of the same compound?
A: potent inhibition of CNV formation
